IC50 data for 1 compound are collected here from patent publication US10246486B2, “Macrocyclic inhibitors of flaviviridae viruses” (Gilead Sciences, Inc., priority 2012, dated 2019).

The chains behind the UniProt entries cited, without tags or fusion partners.
UniProt P62937, whole entry: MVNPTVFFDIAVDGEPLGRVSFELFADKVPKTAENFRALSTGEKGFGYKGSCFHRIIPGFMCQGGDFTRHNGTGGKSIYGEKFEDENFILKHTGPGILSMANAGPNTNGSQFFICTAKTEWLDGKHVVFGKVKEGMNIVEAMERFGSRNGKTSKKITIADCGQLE

The target of the assay is cyclophilin A (Homo sapiens, UniProt P62937).

SMILES strings stand for the structures. Bounds are passed on as bounds.

Broadly, the IC50 is the concentration needed to halve the response being measured. The low end stands for greater potency in that assay, the high end for weaker potency in that assay.

Compound `CC(C)[C@@H]1NC(=O)[C@@H](C)/C=C/c2ccc3ccc(nc3c2)[C@@H](C)OC(=O)[C@@H]2CCCN(N2)C(=O)[C@H](C)NC1=O` displayed an IC50 below 100 nM.
